Source: patent US6472373B1, “Combination therapy for eradicating detectable HCV-RNA in antiviral treatment naive patients having chronic hepatitis C infection” (priority 1997, dated 2002)

What was measured:
[1] = system: chronic hepatitis C; assay: Study 1: overall response (sustained HCV-RNA loss plus Knodell HAI improvement); assay type: in vivo, patients
Description: The primary efficacy variable was the overall response defined as loss of serum HCVRNA/qPCR (<100 copies/mL) as measured at 24 weeks following the end of therapy.
The End of Follow-up overall response rate is a composite of the loss of serum HCV-RNA(qPCR) and change in liver histology at end of follow-up (24 weeks following the end of treatment). A patient was classified as an overall responder if HCV-RNA(PCR) was negative at the 24 week posttreatment evaluation and the posttreatment Knodell HAI inflammation score (sum of categories I+II+III) had improved if the posttreatment value had decreased by 2 or more units relative to the pretreatment score. The percent of sustained virologic responders by time to first negative HCV-RNA, the End of Follow-up (sustained) virologic response, histologic response, and overall response rates are summarized in Tables 2, 3, 4 and 5.
When the study was designed, it was recognized that because liver biopsy is an invasive procedure that it would be unlikely that posttreatment liver biopsies would be obtained for all patients. Therefore, the protocol and statistical analysis plan specified that the analysis for overall response would be based on data for all treated patients and will be estimated by a maximum likelihood method (MLE) for patients whose overall response status could not be determined, ie, patients with negative HCV-RNA and missing (posttreatment) biopsy evaluations. The protocol also specified that an additional analysis would be performed on patients with both pretreatment and posttreatment biopsy results (ie, patients with complete data). The overall response is a composite of sustained loss of detectable HCV-RNA and improvement in liver histology at End of Follow-Up. Overall response is summarized in Table 5 based on the following analyses: […]

[2] = system: chronic hepatitis C (hepatic inflammation); assay: Study 2: liver histology, Knodell HAI (I+II+III) score; assay type: in vivo; conditions: patients with paired biopsies, 48 weeks treatment
[3] = system: serum HCV-RNA; assay: Studies 1 and 2 combined: virologic response by serum HCV-RNA/qPCR; assay type: in vivo, patients; conditions: for Sustained Virologic Response / Sustained Virologic Response by Baseline HCV-RNA Levels / Percent of Sustained Virologic Responders by Time to First No Detectable HCV-RNA Levels: Studies 1 & 2; for Sustained Virologic Response: HCV Genotype 1 and Baseline HCV-RNA ≦ 2 million copies/mL; for Loss of Detectable HCV-RNA at End of Treatment (EOT), percent patients responding / Sustained Virologic Response at EOFU / Sustained Virologic Response at End of Follow Up (EOFU): Studies 1 and 2 combined; for Sustained Virologic Response at End of Follow Up (EOFU): all patients
[4] = system: serum HCV-RNA; assay: Study 2: virologic response by serum HCV-RNA/qPCR; assay type: in vivo, patients
[5] = first no-detectable HCV-RNA at Week 4, 48 weeks treatment
[6] = first no-detectable HCV-RNA at Week 12, 48 weeks treatment

What does the source list for “INTRON A + Placebo: INTRON A (interferon alpha-2b, recombinant) 3 million IU SC TIW plus placebo matching ribavirin; interferon monotherapy comparator”?
Overall Response Rate, maximum likelihood estimate ([1]; 24 weeks treatment): 5%; Overall Response Rate, patients with complete data ([1]; 24 weeks treatment): 5%; Overall Response Rate, maximum likelihood estimate ([1]; 48 weeks treatment): 9%; Overall Response Rate, patients with complete data ([1]; 48 weeks treatment): 11%; Overall Response Rate, treat missing as failures ([1]; 48 weeks treatment): 8%; Improved Biopsy: Knodell HAI (I+II+III) decrease of 2 or more, 24 weeks following EOT [2]: 39% (74); Sustained Virologic Response ([3]; 24 weeks treatment): 4%; Sustained Virologic Response ([3]; 48 weeks treatment): 25%; Sustained Virologic Response by Baseline HCV-RNA Levels ([3]; all patients with Baseline HCV-RNA > 2 million copies/mL, 24 weeks treatment): 4%; Sustained Virologic Response by Baseline HCV-RNA Levels ([3]; all patients with Baseline HCV-RNA > 2 million copies/mL, 48 weeks treatment): 10%; Sustained Virologic Response by Baseline HCV-RNA Levels ([3]; all patients with Baseline HCV-RNA ≦ 2 million copies/mL, 24 weeks treatment): 9%; Sustained Virologic Response by Baseline HCV-RNA Levels ([3]; all patients with Baseline HCV-RNA ≦ 2 million copies/mL, 48 weeks treatment): 36%; Percent of Sustained Virologic Responders by Time to First No Detectable HCV-RNA Levels ([3]; first no-detectable HCV-RNA at Week 4, 24 weeks treatment): 48% (10/21); Percent of Sustained Virologic Responders by Time to First No Detectable HCV-RNA Levels [3, 5]: 71% (47/66); Percent of Sustained Virologic Responders by Time to First No Detectable HCV-RNA Levels ([3]; first no-detectable HCV-RNA at Week 12, 24 weeks treatment): 9% (3/32); Percent of Sustained Virologic Responders by Time to First No Detectable HCV-RNA Levels [3, 6]: 35% (29/84); Percent of Sustained Virologic Responders by Time to First No Detectable HCV-RNA Levels ([3]; first no-detectable HCV-RNA at Week 24, 24 weeks treatment): 0% (0/22); Percent of Sustained Virologic Responders by Time to First No Detectable HCV-RNA Levels ([3]; first no-detectable HCV-RNA at Week 24, 48 weeks treatment): 15% (6/39); Sustained response rates in patients older than 55 years, >75 kg or infected through transfusion ([3]; Studies 1+2, 48 weeks treatment): 10-12%; Loss of Detectable HCV-RNA at End of Treatment (EOT), percent patients responding ([3]; 24 weeks treatment): 29%; Loss of Detectable HCV-RNA at End of Treatment (EOT), percent patients responding ([3]; 48 weeks treatment): 24%; Sustained Virologic Response at EOFU ([3]; HCV Genotype 2, 24 weeks treatment): 18%; Sustained Virologic Response at EOFU ([3]; HCV Genotype 2, 48 weeks treatment): 35%; Sustained Virologic Response at EOFU ([3]; HCV Genotype 3, 24 weeks treatment): 8%; Sustained Virologic Response at EOFU ([3]; HCV Genotype 3, 48 weeks treatment): 29%; Sustained Virologic Response at EOFU ([3]; HCV Genotypes 4/5/6, 24 weeks treatment): 0%; Sustained Virologic Response at EOFU ([3]; HCV Genotypes 4/5/6, 48 weeks treatment): 11%; Sustained Virologic Response at EOFU ([3]; all HCV Genotype 1, 24 weeks treatment): 2%; Sustained Virologic Response at EOFU ([3]; all HCV Genotype 1, 48 weeks treatment): 9%; Sustained Virologic Response at End of Follow Up (EOFU) ([3]; 24 weeks treatment): 6%; Sustained Virologic Response at End of Follow Up (EOFU) ([3]; 48 weeks treatment): 16%; Non Responders at EOFU ([4]; 48 weeks treatment): 66% (184); Relapse at EOFU ([4]; 48 weeks treatment): 15% (41); Serum HCV-RNA Negative at EOT, proportion of patients ([4]; 48 weeks treatment): 33% (93); Serum HCV-RNA Positive at EOT, proportion of patients ([4]; 48 weeks treatment): 65% (185); Sustained Virologic Response at EOFU ([4]; 48 weeks treatment): 19% (53); Sustained Virologic Response ([4]; Genotype 1 & >2 million copies/mL, 48 weeks treatment): 4% (5/122); Sustained Virologic Response ([4]; Genotype 1 & ≦2 million copies/mL, 48 weeks treatment): 30% (14/46); Sustained Virologic Response Rates by HCV Genotype ([4]; Genotype 1, 48 weeks treatment): 11% (19/168); Sustained Virologic Response Rates by HCV Genotype ([4]; Genotype 2, 48 weeks treatment): 35% (8/23); Sustained Virologic Response Rates by HCV Genotype ([4]; Genotype 3, 48 weeks treatment): 32% (25/79); Sustained Virologic Response Rates by HCV Genotype ([4]; Genotype 4-6, 48 weeks treatment): 12% (1/8); Sustained Virologic Response ([4]; HCV-RNA/qPCR >2 million copies/mL, 48 weeks treatment): 13% (24/183); Sustained Virologic Response ([4]; Other Genotype, 48 weeks treatment): 31% (34/110); Sustained Virologic Response ([4]; Other genotype/>2 million copies/mL, 48 weeks treatment): 31 % (19/61); Sustained Virologic Response ([4]; Other genotype/≦2 million copies/mL, 48 weeks treatment): 31% (15/49); Percent of Sustained Virologic Responders by Time to First No Detectable HCV-RNA Levels [4, 5]: 72% (33/46); Percent of Sustained Virologic Responders by Time to First No Detectable HCV-RNA Levels [4, 6]: 34% (18/53)
